From US6541463B1, “Inhibitors of type 5 and type 3 17β-hydroxysteroid dehydrogenase and methods for their use” (Endorecherche, Inc., priority 1998, dated 2003) come the findings set out here.

Chains of the proteins cited; added tags and fusions are not shown.
UniProt P42330, whole entry: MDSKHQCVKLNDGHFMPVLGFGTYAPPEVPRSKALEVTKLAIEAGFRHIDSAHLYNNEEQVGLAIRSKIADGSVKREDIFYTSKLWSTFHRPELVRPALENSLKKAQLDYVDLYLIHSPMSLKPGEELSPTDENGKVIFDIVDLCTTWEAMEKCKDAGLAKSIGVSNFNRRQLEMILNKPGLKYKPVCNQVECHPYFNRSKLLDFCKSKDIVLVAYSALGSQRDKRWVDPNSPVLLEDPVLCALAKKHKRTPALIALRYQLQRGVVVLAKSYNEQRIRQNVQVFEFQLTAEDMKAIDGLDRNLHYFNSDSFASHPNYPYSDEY
UniProt P37059, whole entry: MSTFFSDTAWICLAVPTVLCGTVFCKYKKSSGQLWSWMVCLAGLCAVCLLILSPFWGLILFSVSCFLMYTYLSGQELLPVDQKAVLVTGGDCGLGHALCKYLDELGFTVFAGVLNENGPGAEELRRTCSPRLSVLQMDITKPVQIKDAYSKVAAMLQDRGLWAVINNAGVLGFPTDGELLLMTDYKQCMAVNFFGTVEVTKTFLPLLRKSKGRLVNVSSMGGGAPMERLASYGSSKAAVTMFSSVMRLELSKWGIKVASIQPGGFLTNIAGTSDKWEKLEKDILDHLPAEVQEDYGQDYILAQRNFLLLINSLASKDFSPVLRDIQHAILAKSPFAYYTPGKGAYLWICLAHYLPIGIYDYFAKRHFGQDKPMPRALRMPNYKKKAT

Series [1] concerns Shionogi mouse mammary carcinoma cells. As to the kind of experiment: Androgenic activity: stimulation of proliferation of Shionogi cells.
A short description of series [2]: In vivo assay of oral bioavailability (plasma AUC 0-7 h by LCMS/MS).
The target of series [3] is human type 5 17β-hydroxysteroid dehydrogenase (Homo sapiens, UniProt P42330). As to the kind of experiment: Inhibition of human type 5 17β-HSD activity in transfected 293 cells. As to conditions: read-out: Inhibition Type V 17β-HSD IC50. It is filed as cell-based.
The target in series [4] is human type 2 17β-hydroxysteroid dehydrogenase (Homo sapiens, UniProt P37059). As to the kind of experiment: Enzymatic assay for type 2 17β-HSD. As to conditions: for Inhibition Type 2 17β-HSD Activity [% Inh.]: at 3.10^-8M.
The test system of series [5] is Shionogi mouse mammary carcinoma cells. Description: Antiandrogenic activity: inhibition of DHT-induced proliferation of Shionogi cells. The class given is cell-based. As to conditions: for IC50: read-out: Antiandrogenic Activity Shionogi, DHT [IC50]; for Antiandrogenic Activity Shionogi, DHT / IC50: DHT.
The test system of series [6] is ZR-75-1 cells. Description: Estrogenic activity: stimulation of proliferation of ZR-75-1 cells. The class given is cell-based, human.
Series [7] has as its system ZR-75-1 cells. Description: Antiestrogenic activity: inhibition of E2-induced proliferation of ZR-75-1 cells. Details: ZR-75-1 Activity, E2 / ZR-75-1 Activity E2 E^−6: unit not given here.

Each structure is given as a SMILES string. Read-outs that look alike come from different tables or passages of the source.

On to `CC1=CC2C(CC[C@@]3(C)C2CC[C@]3(OC(=O)C(C)C)C(=O)N(C)C)[C@@]2(C)CCC(=O)C=C12` (stereo partly drawn), for which the “Androgenic Activity Shionogi, Basal” value is −42 in series [1] (E^−6) and −25 in series [1] (E^−7). The “Oral Bioavailability AUC 0-7h” value in series [2] (AUC 0-7h) was found to be 181 ± 28 ng·h/mL. Besides, in series [3], the IC50 worked out at 0.0041 µM. In series [4], the “Inhibition Type 2 17β-HSD Activity [% Inh.]” value was “[73] %”. Besides, the results for the “Antiandrogenic Activity Shionogi, DHT” value in series [5] (E^−6) and in series [5] (E^−7) were −68 and 0, respectively.
Turning to `CCC(=O)O[C@]1(C(=O)N(C)C)CCC2C3C=C(C)C4=CC(=O)CC[C@]4(C)C3CC[C@@]21C` (stereo partly drawn), the “Androgenic Activity Shionogi, Basal” value in series [1] (E^−6) was −56; in series [1] (E^−7), −25. Moreover, the “Oral Bioavailability AUC 0-7h” value in series [2] (AUC 0-7h) worked out at 257 ± 81 ng·h/mL. Moreover, the values for the IC50 in series [3] and in series [5] were 0.006 µM and 0.535 µM, respectively. The “Inhibition Type 2 17β-HSD Activity [% Inh.]” value in series [4] was “[51] %”. For the same compound, the “Antiandrogenic Activity Shionogi, DHT” value in series [5] (E^−6) is on record as −108; in series [5] (E^−7) it was −25.
As for `CC(=O)[C@@]1(OC(=O)Cc2ccc(Cl)cc2)CC[C@H]2[C@@H]3C=C(C)C4=CC(=O)CC[C@]4(C)[C@H]3CC[C@@]21C`, the “Androgenic Activity Shionogi, Basal” value in series [1] (E^−6) is listed as −27; in series [1] (E^−7), 4. The “Oral Bioavailability AUC 0-7h” value in series [2] (AUC 0-7h) is 53 ± 23 ng·h/mL. Further, the IC50 in series [3] stood at 0.0051 µM. Also, the “Antiandrogenic Activity Shionogi, DHT” value in series [5] (E^−6) is given as −87; in series [5] (E^−7), −21. Further, the “ZR-75-1 Activity, Basal” value in the series with ZR-75-1 cells [6] (E^−6) was 19; in the series with ZR-75-1 cells [6] (E^−8), 0. The “ZR-75-1 Activity, E2” value is −24 in the series on ZR-75-1 cells [7] (E2) and 0 in the series with ZR-75-1 cells [7] (E2, E^−8).
In the case of `CC(=O)[C@@]1(OC(=O)C(C)(C)C)CCC2C3C=C(C)C4=CC(=O)C[C@H](C)[C@]4(C)C3CC[C@@]21C` (stereo partly drawn), the “Androgenic Activity Shionogi, Basal” value in series [1] (E^−6) was −31; in series [1] (E^−7), 0. Further, the values for the IC50 in series [3] and in series [5] were 0.031 µM and 0.674 µM, respectively. Besides, the “Inhibition Type 2 17β-HSD Activity [% Inh.]” value in series [4] is “[32] %”. Further, the figures for the “Antiandrogenic Activity Shionogi, DHT” value in series [5] (E^−6) and in series [5] (E^−7) were −106 and 15, respectively. For the same compound, the figures for the “ZR-75-1 Activity, Basal” value in the series with ZR-75-1 cells [6] (E^−6) and in the series with ZR-75-1 cells [6] (E^−8) were 11 and 0, respectively. The “ZR-75-1 Activity, E2” value in the series with ZR-75-1 cells [7] (E2) is −11; with ZR-75-1 cells [7] (E2, E^−8), −25.
Turning to `CC(=O)[C@@]1(OC(=O)C2CCCCC2)CCC2C3C=C(C)C4=CC(=O)CC[C@]4(C)C3CC[C@@]21C` (stereo partly drawn), the “Androgenic Activity Shionogi, Basal” value in series [1] (E^−6) was −48; in series [1] (E^−7) it was −31. The IC50 amounted to 0.0068 µM in series [3] and 0.093 µM in series [5]. Also, the “Inhibition Type 2 17β-HSD Activity [% Inh.]” value in series [4] was “[39] %”. The “Antiandrogenic Activity Shionogi, DHT” value is given as −132 in series [5] (E^−6) and −79 in series [5] (E^−7). The “ZR-75-1 Activity, Basal” value in the series with ZR-75-1 cells [6] (E^−6) and in the series on ZR-75-1 cells [6] (E^−8) was −13 each time. Further, the “ZR-75-1 Activity, E2” value was −48 in the series with ZR-75-1 cells [7] (E2) and −35 with ZR-75-1 cells [7] (E2, E^−8).
As for `CC(=O)[C@@]1(OC(=O)CCCBr)CCC2C3C=C(C)C4=CC(=O)CC[C@]4(C)C3CC[C@@]21C` (stereo partly drawn), the “Androgenic Activity Shionogi, Basal” value in series [1] (E^−6) is −15; in series [1] (E^−7), −17. Besides, the “Oral Bioavailability AUC 0-7h” value in series [2] (AUC 0-7h) was 16 ± 5 ng·h/mL. The IC50 in series [3] was determined as 0.0035 µM; in series [5], 0.035 µM. In addition, the entries for the “Antiandrogenic Activity Shionogi, DHT” value in series [5] (E^−6) and in series [5] (E^−7) were −101 and −83, respectively. For the same compound, the “ZR-75-1 Activity, Basal” value is recorded as −13 with ZR-75-1 cells [6] (E^−6) and −9 in the series with ZR-75-1 cells [6] (E^−8). Also, the “ZR-75-1 Activity, E2” value was −73 in the series with ZR-75-1 cells [7] (E2) and −67 in the series with ZR-75-1 cells [7] (E2, E^−8).
For `COc1ccc(CC(=O)O[C@]2(C(C)=O)CCC3C4C=C(C)C5=CC(=O)CC[C@]5(C)C4CC[C@@]32C)cc1` (stereo partly drawn), the “Androgenic Activity Shionogi, Basal” value in series [1] (E^−6) is recorded as −33; in series [1] (E^−7), 10. Moreover, in series [2] (AUC 0-7h), the “Oral Bioavailability AUC 0-7h” value came out at 83 ± 16 ng·h/mL. The IC50 in series [3] was determined as 0.009 µM. In addition, the “Antiandrogenic Activity Shionogi, DHT” value in series [5] (E^−6) is recorded as 66; in series [5] (E^−7), −12. Also, the “ZR-75-1 Activity, Basal” value in the series with ZR-75-1 cells [6] (E^−6) and in the series on ZR-75-1 cells [6] (E^−8) was 0 throughout. In addition, the “ZR-75-1 Activity, E2” value with ZR-75-1 cells [7] (E2) is listed as −71; with ZR-75-1 cells [7] (E2, E^−8), −52.
On to `CCCCC(=O)O[C@]1(C(C)=O)CCC2C3C=C(C)C4=CC(=O)C[C@H](C)[C@]4(C)C3CC[C@@]21C` (stereo partly drawn), for which the entries for the “Androgenic Activity Shionogi, Basal” value in series [1] (E^−6) and in series [1] (E^−7) were −27 and −10, respectively. The figures for the IC50 in series [3] and in series [5] were 0.031 µM and 0.075 µM, respectively. In addition, the “Inhibition Type 2 17β-HSD Activity [% Inh.]” value in series [4] was “[42] %”. Besides, the entries for the “Antiandrogenic Activity Shionogi, DHT” value in series [5] (E^−6) and in series [5] (E^−7) were −122 and −82, respectively. The “ZR-75-1 Activity, Basal” value is given as −8 in the series with ZR-75-1 cells [6] (E^−6) and 0 with ZR-75-1 cells [6] (E^−8). The “ZR-75-1 Activity, E2” value in the series with ZR-75-1 cells [7] (E2) is listed as −35; with ZR-75-1 cells [7] (E2, E^−8), −10.
Take `CC(=O)[C@@]1(OC(=O)Cc2ccc(F)cc2)CCC2C3C=C(C)C4=CC(=O)CC[C@]4(C)C3CC[C@@]21C` (stereo partly drawn): the entries for the “Androgenic Activity Shionogi, Basal” value in series [1] (E^−6) and in series [1] (E^−7) were −24 and −10, respectively. Also, the “Oral Bioavailability AUC 0-7h” value in series [2] (AUC 0-7h) turned out to be 33 ± 7 ng·h/mL. In addition, in series [3], the concentration for half-maximal inhibition (IC50) amounted to 0.005 µM. The “Antiandrogenic Activity Shionogi, DHT” value was −89 in series [5] (E^−6) and −17 in series [5] (E^−7).
Consider `CCC(=O)O[C@]1(C(=O)N(C)Cc2ccccc2)CCC2C3C=C(C)C4=CC(=O)CC[C@]4(C)C3CC[C@@]21C` (stereo partly drawn), for which the “Androgenic Activity Shionogi, Basal” value in series [1] (E^−6) is given as −64; in series [1] (E^−7), −23. In series [2] (AUC 0-7h), the “Oral Bioavailability AUC 0-7h” value is 23 ± 5 ng·h/mL. Moreover, the IC50 in series [3] amounted to 0.0116 µM. Besides, the “Antiandrogenic Activity Shionogi, DHT” value in series [5] (E^−6) is recorded as −118; in series [5] (E^−7) it was −32.
`CC(=O)[C@@]1(OC(=O)C2CCCC2)CCC2C3C=C(C)C4=CC(=O)C[C@H](C)[C@]4(C)C3CC[C@@]21C` (stereo partly drawn): the “Androgenic Activity Shionogi, Basal” value in series [1] (E^−6) was −35; in series [1] (E^−7) it was −12. The values for the IC50 in series [3] and in series [5] were 0.0054 µM and 0.128 µM, respectively. Besides, in series [4], the “Inhibition Type 2 17β-HSD Activity [% Inh.]” value was “[62] %”. Besides, the “Antiandrogenic Activity Shionogi, DHT” value is given as −155 in series [5] (E^−6) and −68 in series [5] (E^−7). Further, the “ZR-75-1 Activity, Basal” value in the series on ZR-75-1 cells [6] (E^−6) worked out at 20; with ZR-75-1 cells [6] (E^−8) it was 0. The “ZR-75-1 Activity, E2” value with ZR-75-1 cells [7] (E2) is −40; in the series with ZR-75-1 cells [7] (E2, E^−8), −30.
As to `COC(=O)c1ccc2c(c1)CCC1C2CC[C@@]2(C)C1CC[C@@]21CCC(C)(C)C(=O)O1` (stereo partly drawn), the “Oral Bioavailability AUC 0-7h” value in series [2] (Table 4′, oral, rat plasma) came out at 136 ± 33 ng·h/mL. In addition, the 50% inhibitory concentration (IC50) in series [3] (Table 4′) is 0.025 µM; in series [4] (read-out: Inhibition Type 2 17β-HSD Activity IC50, Table 4′), > 10 µM. Besides, the “Antiandrogenic Activity Shionogi DHT E^−6” value in series [5] (Table 4′, DHT-induced proliferation, E^−6 (10^−6 M)) is recorded as −84%.
With `CC(=O)[C@@]1(OC(=O)C(C)C)CC[C@H]2[C@@H]3C=C(C)C4=CC(=O)C[C@H](C)[C@]4(C)[C@H]3CC[C@@]21C`, the “Androgenic Activity Shionogi, Basal” value in series [1] (E^−6) is recorded as −30; in series [1] (E^−7) it was 13. Also, the half-maximal inhibitory concentration (IC50) was 0.0105 µM in series [3] and 0.082 µM in series [5]. For the same compound, in series [4], the “Inhibition Type 2 17β-HSD Activity [% Inh.]” value was “[62] %”. The “Antiandrogenic Activity Shionogi, DHT” value was −122 in series [5] (E^−6) and −67 in series [5] (E^−7). Besides, the “ZR-75-1 Activity, Basal” value in the series on ZR-75-1 cells [6] (E^−6) and with ZR-75-1 cells [6] (E^−8) was 0 throughout. Also, the “ZR-75-1 Activity, E2” value in the series with ZR-75-1 cells [7] (E2) is −48; in the series with ZR-75-1 cells [7] (E2, E^−8), −44.

For orientation: IC50 means the concentration that gives 50% inhibition.
